# Values of other authors in US12283350B2.
# Sequences of proteins named here, by UniProt entry; tags and fusion partners are left off.
# UniProt P50750, whole entry: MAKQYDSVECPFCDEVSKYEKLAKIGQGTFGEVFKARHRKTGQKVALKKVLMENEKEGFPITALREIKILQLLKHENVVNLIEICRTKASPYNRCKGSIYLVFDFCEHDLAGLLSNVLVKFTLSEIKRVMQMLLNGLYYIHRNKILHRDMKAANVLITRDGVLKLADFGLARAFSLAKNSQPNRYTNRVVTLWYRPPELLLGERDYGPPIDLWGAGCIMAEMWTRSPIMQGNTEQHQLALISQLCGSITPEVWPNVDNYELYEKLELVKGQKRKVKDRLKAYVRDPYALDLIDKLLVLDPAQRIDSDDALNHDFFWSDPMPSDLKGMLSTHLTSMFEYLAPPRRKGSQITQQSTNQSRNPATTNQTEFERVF
# UniProt O60563, whole entry partner: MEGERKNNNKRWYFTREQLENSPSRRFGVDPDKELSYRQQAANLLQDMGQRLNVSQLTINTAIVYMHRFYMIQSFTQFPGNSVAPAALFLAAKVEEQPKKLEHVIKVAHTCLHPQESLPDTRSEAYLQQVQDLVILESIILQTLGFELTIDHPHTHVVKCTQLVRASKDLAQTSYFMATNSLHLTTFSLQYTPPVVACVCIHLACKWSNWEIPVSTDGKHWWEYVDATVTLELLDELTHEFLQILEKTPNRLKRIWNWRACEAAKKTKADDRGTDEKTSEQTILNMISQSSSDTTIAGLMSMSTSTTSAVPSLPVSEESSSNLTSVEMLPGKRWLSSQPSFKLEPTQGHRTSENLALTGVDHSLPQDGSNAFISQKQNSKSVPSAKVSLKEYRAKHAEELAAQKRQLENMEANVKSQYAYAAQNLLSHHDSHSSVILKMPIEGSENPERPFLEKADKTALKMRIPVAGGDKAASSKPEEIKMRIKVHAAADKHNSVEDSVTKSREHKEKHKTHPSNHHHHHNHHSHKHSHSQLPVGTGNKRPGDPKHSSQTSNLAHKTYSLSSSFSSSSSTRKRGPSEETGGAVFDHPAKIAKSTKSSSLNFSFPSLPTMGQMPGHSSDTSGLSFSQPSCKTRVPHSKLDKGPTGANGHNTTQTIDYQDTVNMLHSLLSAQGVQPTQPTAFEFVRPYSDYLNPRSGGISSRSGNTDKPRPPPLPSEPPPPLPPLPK
# Target: CDK9 (Homo sapiens, UniProt P50750)
# Settings: held-out literature compounds regenerated by the generative model (FIG. 53)
row,Compound,measured pIC50
1,COc1ccccc1-c1cc(Nc2ccccn2)ncn1,7.44
2,O=C(Nc1cc(-c2cncc(NCC3CCOCC3)n2)c(Cl)cn1)C1CCCNC1 (stereo not drawn),8.05
3,CN1CCC(c2c(O)cc(O)c3c(=O)cc(/C=C/c4c(Cl)cccc4Cl)oc23)C(O)C1 (stereo not drawn),8.70
